Target: human DGAT1 (Homo sapiens, UniProt O75907)
Assay: DGAT1 FlashPlate inhibition assay with DGAT1 membrane preparations
Details: IC50 values expressed in M; pIC50 = -logIC50; inhibition of DGAT1 activity
Description: The inhibiting activity of the present compounds on DGAT1 activity was screened in a single well procedure assay using DGAT1 comprising membrane preparations and DGAT1 substrate comprising micelles and determining formed radio-active triacylglycerol coming in close proximity of a flashplate surface by radioluminescence.
Said assay is described in full detail in WO2006/067071, the content of which is incorporated herein by reference.
By DGAT1 activity is meant the transfer of coenzyme A activated fatty acids to the 3-position of 1,2-diacylglycerols, thus forming a triglyceride molecule, by enzyme DGAT1.
human DGAT1 (NM012079.2) was cloned into the pFastBac vector, containing translation start, a FLAG-tag at the N-terminus as described in literature and a viral Kozak sequence (AAX) preceding the ATG to improve expression in insect cells. Expression was done as described in literature (Cases, S., Smith, S. J., Zheng, Y., Myers H. M., Lear, S. R., Sande, E., Novak, S., Collins, C., Welch, C. B., Lusis, A. J., Erickson, S. K. and Farese, R. V. (1998) Proc. Natl. Acad. Sci. USA 95, 13018-13023.) using SF9 cells.
72 h transfected SF9 cells were collected by centrifugation (13000 rpm-15 min-4° C.) and lysed in 2×500 ml lysis buffer (0.1M Sucrose, 50 mM KCl, 40 mM KH2PO4, 30 mM EDTA pH 7.2. Cells were homogenized by cell disruptor. After centrifugation 1380 rpm-15 min-4° C. (SN discarded), pellet was resuspended in 500 ml lysis buffer and total cell membranes collected by ultracentrifugation at 34000 rpm (100 000 g) for 60 min (4° C.). The collected membranes were resuspended in lysis buffer, divided in aliquots and stored with 10% glycerol at −80° C. until use.
Add 1 ml dioleoyl-sn-glycerol (10 mg/ml) to 10 ml of L-α-phosphatidylcholine (1 mg/ml) and 10 ml of L-α-phosphatidyl-L-serine (1 mg/ml) in a thick glass recipient. Evaporate under nitrogen and put on ice for 15 minutes. Reconstitute in 10 ml Tris/HCl (10 mM, pH 7.4) by sonication on ice. The sonification process consists of sonification cycles of 10 seconds in the sonification bath followed by 10 seconds cool down on ice and repeating this sonification cycle till a homogeneous solution is obtained (takes about 15 minutes). The thus obtained micelles are stored at −20° C. till later use and contain DAG at a final concentration of 1.61 mM.
• 50 mM Tris-HCl (pH 7.4), 150 mM MgCl2, 1 mM EDTA, 0.2% BSA. b) N-ethylmaleimide, 5M • Dissolve 5 g into a final volume of 8 ml DMSO 100% and store at −20° C. in aliquots till later use. c) Substrate mix (for 1 384 well plate=3840 μl) • 612 μl micelles stock (51 μM final) • 16.6 μl oleoylCoA 9.7 mM • 23 μl [^3H]-oleoylCoA (49 Ci/mmol, 500 μCi/ml) • 3188.4 μl Tris pH 7.4, 10 mM d) Enzyme mix (for 1 384 well plate=3520 μl) (5 μg/ml) • Add 11.73 μl of DGAT membrane stock (1500 μg/ml stock) to 3508 μl assay buffer. e) Stop mix (for 1 384 well plate=7.68 ml) (250 mM) • Add 384 μl of N-ethylmaleimide (5M) to 3.456 ml DMSO 100%, and further dilute 3.84 ml of said solution with 3.84 ml DMSO 10%. Method
DGAT activity in membrane preparations was assayed in 50 mM Tris-HCl (pH 7.4), 150 mM MgCl2, 1 mM EDTA and 0.2% BSA, containing 50 μM DAG, […] PC/PS and 8.4 μM [^3H]-oleoylCoA (at a specific activity of 30 nCi/well) in a final volume of 50 μl in 384-well format using the red shifted Basic Image FlashPlate™ (Perkin Elmer Cat. No. SMP400).
In detail, 10 μl enzyme mix and 10 μl substrate mix were added to 30 μl of assay buffer, optionally in the presence of 1 μl DMSO (blank and controls) or 1 μl of the compound to be tested. This reaction mixture was incubated for 120 minutes at 37° C. and the enzymatic reaction stopped by adding 20 μl of the stop mix. The plates were sealed and the vesicles allowed to settle overnight at room temperature. Plates were centrifuged for 5 minutes at 1500 rpm and measured in Leadseeker. […]

Chains of the proteins cited; added tags and fusions are not shown.
UniProt O75907, whole entry: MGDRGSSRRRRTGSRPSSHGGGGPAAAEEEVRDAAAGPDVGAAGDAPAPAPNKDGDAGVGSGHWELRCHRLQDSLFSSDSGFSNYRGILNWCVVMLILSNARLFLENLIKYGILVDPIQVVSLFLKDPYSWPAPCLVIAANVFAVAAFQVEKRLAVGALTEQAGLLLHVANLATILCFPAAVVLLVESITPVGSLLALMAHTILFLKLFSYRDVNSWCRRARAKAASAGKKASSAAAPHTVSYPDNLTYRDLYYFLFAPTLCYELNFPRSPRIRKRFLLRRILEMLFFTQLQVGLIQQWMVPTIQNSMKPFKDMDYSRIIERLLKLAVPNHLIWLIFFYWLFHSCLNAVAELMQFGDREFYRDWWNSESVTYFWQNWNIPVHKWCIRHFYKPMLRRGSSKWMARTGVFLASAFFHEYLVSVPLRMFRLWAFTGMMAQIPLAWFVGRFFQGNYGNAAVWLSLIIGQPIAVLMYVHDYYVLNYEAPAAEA

Compound | pIC50
Cc1nc(C(=O)Nc2ccc(C3CCN(C(=O)Nc4c(Cl)cccc4Cl)CC3)cc2)c(-c2ccc3c(c2)OCO3)s1 | 6.15
COc1ccc(NC(=O)c2ccc(N3CCN(C(=O)Nc4c(Cl)cc(CN5CCCC5)cc4Cl)CC3)cc2F)cc1 | 6.67
O=C(Nc1ccc(N2CCN(C(=O)NC3CCCCC3)CC2)cc1)c1ccccc1-c1ccc(C(F)(F)F)cc1 | 5.13
CCCCc1ccc(C(=O)Nc2ccc(N3CCN(C(=O)Cc4ccccc4C)CC3)cc2)cc1 | 6.96

Continued, values first:

pIC50 | Compound
5.89 | O=C(Nc1c(Cl)cccc1Cl)c1ccc(N2CCN(C(=O)Cc3c(Cl)cccc3Cl)CC2)cc1
7.34 | Cc1cc(Cl)c(CC(=O)N2CCN(c3ccc(C(=O)Nc4cccc(N5CCCC5)c4)cc3)CC2)c(Cl)n1
5.03 | COc1ccc(CNC(=O)N2CCN(c3ccc(C(=O)Nc4c(Cl)cccc4Cl)cc3)CC2)cc1
6.75 | Cc1ccccc1CC(=O)N1CCN(c2ccc(NC(=O)c3cccc(Br)c3)cc2)CC1

Reference: patent US9227935B2, “Piperidine/piperazine derivatives” (Janssen Pharmaceutica N.V., priority 2007, dated 2016)
